From patent US20030130484A1, “Inhibitors and disassemblers of fibrillogenesis” (priority 2001, published 2003)

Protein sequences, listed by entry. Tags and fused reporters are not part of them. Residues count along the entry.
UniProt P05067, 672-711: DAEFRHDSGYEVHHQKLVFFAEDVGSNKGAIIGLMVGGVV

Target: Aβ40 (Homo sapiens, UniProt P05067)
Experiment: Inhibition of Aβ40 fibrillogenesis, thioflavin T fluorescence assay
Type: biochemical

CC(=O)N[C@@H](CCCCN)C(=O)N(C)[C@@H](CC(C)C)C(=O)N[C@H](C(=O)N(C)[C@@H](Cc1ccccc1)C(=O)N[C@@H](Cc1ccccc1)C(N)=O)C(C)C [Aβ16-20m, Ac—NH—K(me-L)V(me-F)F—CONH2]
Inhibition ICmax: 100
Inhibition of Fibrilogenesis ICmax: 100%
